Results as given in a compilation of properties of binary mixtures.

Assay: xn = mol fraction of the nth substance listed
Conditions: 100 kPa

CCC[N+](CCC)(CCC)CCC.[Br-] + OCCO
viscosity [mPa·s]
Conditions	298 K	308 K	328 K	338 K	348 K
x1 = 0.25	72.5	–	–	–	–
x2 = 0.75	72.5	42	17	12.5	9
